Earlier results as cited in patent US7452892B2, “Triazolopyrimidine cannabinoid receptor 1 antagonists” (Bristol-Myers Squibb Company, priority 2005, dated 2008).

Conditions: chronic administration for two weeks

## Cc1c(C(=O)NN2CCCCC2)nn(-c2ccc(Cl)cc2Cl)c1-c1ccc(I)cc1 [AM-251]
  adipose tissue mass: decreased adipose tissue mass
